These results are taken from US20250230129A1, “POLYAMIDE COMPOUNDS, METHOD FOR PREPARING SAME, AND MEDICAL USE THEREOF” (priority 2022, published 2025).

The chains behind the UniProt entries cited, without tags or fusion partners.
UniProt P35372, whole entry: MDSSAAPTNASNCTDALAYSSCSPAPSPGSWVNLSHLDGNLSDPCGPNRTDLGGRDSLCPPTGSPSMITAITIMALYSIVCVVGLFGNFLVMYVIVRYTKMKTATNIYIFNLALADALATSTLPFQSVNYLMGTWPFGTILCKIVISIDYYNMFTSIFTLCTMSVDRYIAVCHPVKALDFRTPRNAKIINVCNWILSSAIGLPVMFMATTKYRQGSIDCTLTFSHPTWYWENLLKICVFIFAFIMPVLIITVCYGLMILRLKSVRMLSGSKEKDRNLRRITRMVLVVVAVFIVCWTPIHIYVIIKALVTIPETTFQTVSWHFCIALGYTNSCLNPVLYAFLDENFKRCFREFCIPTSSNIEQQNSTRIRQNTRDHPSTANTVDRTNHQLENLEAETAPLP
UniProt Q12809, whole entry: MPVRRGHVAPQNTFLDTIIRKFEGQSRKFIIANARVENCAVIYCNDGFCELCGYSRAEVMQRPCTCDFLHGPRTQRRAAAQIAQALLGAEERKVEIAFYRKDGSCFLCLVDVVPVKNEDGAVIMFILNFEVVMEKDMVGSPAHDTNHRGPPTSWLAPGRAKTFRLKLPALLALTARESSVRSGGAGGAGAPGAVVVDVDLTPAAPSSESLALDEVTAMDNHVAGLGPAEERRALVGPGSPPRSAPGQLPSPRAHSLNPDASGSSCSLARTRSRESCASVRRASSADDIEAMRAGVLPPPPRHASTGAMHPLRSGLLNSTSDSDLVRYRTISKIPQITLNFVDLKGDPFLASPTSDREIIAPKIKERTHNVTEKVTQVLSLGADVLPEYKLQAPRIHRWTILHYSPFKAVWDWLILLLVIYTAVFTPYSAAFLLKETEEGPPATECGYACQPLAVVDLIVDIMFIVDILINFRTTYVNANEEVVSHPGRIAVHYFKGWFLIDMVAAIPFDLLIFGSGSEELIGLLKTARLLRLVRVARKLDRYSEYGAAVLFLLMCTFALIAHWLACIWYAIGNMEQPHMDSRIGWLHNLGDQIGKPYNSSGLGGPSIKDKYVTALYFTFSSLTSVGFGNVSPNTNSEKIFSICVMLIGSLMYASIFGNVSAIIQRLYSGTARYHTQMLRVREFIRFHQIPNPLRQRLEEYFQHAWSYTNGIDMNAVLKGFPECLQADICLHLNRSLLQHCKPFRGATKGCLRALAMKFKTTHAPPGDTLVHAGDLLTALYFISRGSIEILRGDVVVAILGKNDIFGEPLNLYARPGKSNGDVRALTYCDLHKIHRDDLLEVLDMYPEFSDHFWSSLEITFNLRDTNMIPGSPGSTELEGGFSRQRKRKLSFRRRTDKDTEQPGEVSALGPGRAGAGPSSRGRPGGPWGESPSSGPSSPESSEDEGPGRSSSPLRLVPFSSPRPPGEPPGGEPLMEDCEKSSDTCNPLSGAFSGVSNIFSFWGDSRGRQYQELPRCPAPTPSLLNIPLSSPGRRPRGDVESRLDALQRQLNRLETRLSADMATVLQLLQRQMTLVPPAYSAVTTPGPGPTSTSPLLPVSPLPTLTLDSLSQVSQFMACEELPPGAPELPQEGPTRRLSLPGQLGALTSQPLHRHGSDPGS

Like-named read-outs stand apart in the source and are kept apart here.

Series [1] deals with δ receptor (Homo sapiens (Human), UniProt P41143). The series can be described thus: Competitive delta receptor binding assay (3H-DADLE). To be noted: read-out: δ receptor Ki, CHO-K1-delta membranes, 3H-DADLE 4 nM.
The target in series [2] is μ receptor (Homo sapiens (Human), UniProt P35372). The series can be described thus: μ receptor affinity assay (3H-DAMGO). In kind it is binding. To be noted: read-out: μ receptor Ki, CHO-K1-μ membranes, 3H-DAMGO 2 nM.
For series [3], the target named is κ receptor (Homo sapiens (Human), UniProt P41145). The series can be described thus: Competitive Kappa receptor binding assay (3H-U69593). The note with it: read-out: κ receptor Ki, CHO-K1-Kappa membranes, 3H-U69593 2 nM.
Series [4] addresses κ-opioid receptor (Kappa) (Homo sapiens (Human), UniProt P41145). The series can be described thus: In vitro functional assay, HTRF cAMP-Gi in CHO-K1-OPRK1 cells. In kind it is cell-based. Background: Time-resolved FRET reads energy transfer from a long-lived donor to a nearby acceptor.
Series [5] relates to ICR mice. In words: Sedation safety window.
Series [6] relates to ICR mice. The series can be described thus: Autonomous activity test in mice. The note with it: single intravenous injection, male ICR mice, 30 min recording.
Series [7] concerns ICR mice. In words: Acetic acid writhing test in mice. In kind it is in vivo. The note with it: single intravenous injection, male ICR mice.
Series [8] in a line: PK and blood-brain barrier permeability in mice. To be noted: male ICR mice, intravenous 1 mg/kg.
The target of series [9] is hERG (Homo sapiens (Human), UniProt Q12809). In words: hERG potassium ion channel manual patch-clamp. To be noted: 10 μM, HEK293 cells stably expressing hERG; tested form: formate.
Where [10] appears, read: read-out: In vitro agonistic effects on k-opioid receptors EC50, 1 μM Forskolin, tested form: formate.

A word on the Ki: it is a dissociation constant, usually derived from enzyme kinetics or from competition with a known ligand. The EC50 is the midpoint of the concentration-response curve. In general, Vd refers to the apparent volume that relates the amount in the body to the concentration in plasma or blood. Low values mean confinement near the circulation, high ones extensive tissue distribution. The term t½ denotes how long it takes for the measured level to halve. A low value points to fast loss. As usually defined, the Cmax is the peak of the concentration-time curve.

In the case of `COC(=O)NC1CCN(C(=O)[C@@H](CCCCN)NC(=O)[C@@H](CC(C)C)NC(=O)[C@@H](Cc2ccccc2)NC(=O)NC(CN)c2ccccc2)CC1` (stereo partly drawn), the values for the Ki in series [1] (tested form: formate), in series [2] (tested form: formate) and in series [3] (tested form: formate) were greater than 1000 nM, greater than 1000 nM and 3.49 nM, respectively. Further, the concentration giving a half-maximal response (EC50) in series [4] (setting [10]) is 1.23 nM.

In the case of `COC(=O)N(CCCN)C1CCN(C(=O)[C@@H](C)NC(=O)[C@@H](CC(C)C)NC(=O)[C@@H](Cc2ccccc2)NC(=O)[C@H](N)Cc2ccccc2)CC1`, the Ki is greater than 1000 nM in [1] (tested form: formate), greater than 1000 nM in series [2] (tested form: formate) and 0.48 nM in series [3] (tested form: formate). Besides, the Safety window in series [5] (sedation side effect ED50 (autonomic activity test)/efficacy ED50 (acetic acid writhing test), tested form: formate) worked out at 3.43. Further, the “Autonomous activity in mice ED50” value in series [6] (tested form: formate) is listed as 5.52 mg/kg. Moreover, the concentration giving a half-maximal response (EC50) in series [4] (setting [10]) came out at 0.59 nM. Besides, in [7] (tested form: formate), the “Acetic acid writhing in mice ED50” value was determined as 1.61 mg/kg.

As for `COC(=O)N(CCCN)C1CCN(C(=O)[C@@H](C)NC(=O)[C@@H](CC(C)C)NC(=O)[C@@H](Cc2ccccc2)NC(=O)N(C)C(CN)c2ccccc2)CC1` (stereo partly drawn), the values for the Ki in [1] (tested form: formate), in [2] (tested form: formate) and in series [3] (tested form: formate) were greater than 1000 nM, greater than 1000 nM and 2 nM, respectively. Also, the EC50 in series [4] (setting [10]) was 6.13 nM.

In the case of `COC(=O)NC1CCN(C(=O)[C@@H](CCCCN)NC(=O)[C@@H](CC(C)C)NC(=O)[C@@H](Cc2ccccc2)NC(=O)N(CCN)Cc2ccccc2)CC1`, in series [1], the Ki is greater than 1000 nM. In addition, the Ki in [2] is greater than 1000 nM. For the same compound, the Safety window in series [5] (mouse, in vivo) is 5.13. Further, the “Autonomous activity in mice ED50” value in series [6] came out at 1.37 mg/kg. Moreover, the Ki in [3] was 0.26 nM. Also, in series [8], the “AUC(0-∞)” value worked out at 2503.55 ng·h/mL, the Clearance stood at 6.67 mL/min/kg, the Vd is recorded as 0.51 L/kg and the t½ is 52.2 min. Moreover, in [8] (blood and brain 5 min after administration), the “B/P (brain-to-blood ratio)” value came to 0.010. Besides, the Cmax in series [8] (plasma) is reported as 4729.52 ng/mL. Moreover, the EC50 in [4] (read-out: In vitro agonistic effects on k-opioid receptors EC50, 1 μM Forskolin) was found to be 0.079 nM. Besides, the “Acetic acid writhing in mice ED50” value in [7] came out at 0.27 mg/kg.

Consider `CC(C)C[C@@H](NC(=O)[C@@H](Cc1ccccc1)NC(=O)[C@H](N)Cc1ccccc1)C(=O)N[C@H](CCCCN)C(=O)N1CCC2(CC1)CNC(=O)c1ncccc12`, for which the “% inhibition rate of hERG current” value in series [9] is on record as 4.15% ± 0.07%. For the same compound, the Ki in series [1] (tested form: formate) was greater than 1000 nM; in series [2] (tested form: formate) it was greater than 1000 nM; in series [3] (tested form: formate), 0.34 nM. Further, the EC50 in [4] (setting [10]) worked out at 0.3 nM.

For the compound `CN=S1(=O)CCN(C(=O)[C@@H](CCCCN)NC(=O)[C@@H](CC(C)C)NC(=O)[C@@H](Cc2ccccc2)NC(=O)[C@H](N)Cc2ccccc2)CC1`, the Ki in series [1] (tested form: formate) is greater than 1000 nM; in series [2] (tested form: formate), greater than 1000 nM; in [3] (tested form: formate), 0.91 nM. In addition, in series [4] (setting [10]), the EC50 came out at 0.3 nM.

`CC(C)C[C@@H](NC(=O)[C@@H](Cc1ccccc1)NC(=O)[C@H](N)Cc1ccccc1)C(=O)N[C@H](CCCCN)C(=O)N1CCC2(CC1)CCN(C)c1ncccc12`: the figures for the Ki in [1] (tested form: formate), in series [2] (tested form: formate) and in [3] (tested form: formate) were greater than 1000 nM, greater than 1000 nM and 0.6 nM, respectively. Besides, the EC50 in series [4] (setting [10]) is less than 0.1 nM.

Consider `CC(C)C[C@@H](NC(=O)[C@@H](Cc1ccccc1)NC(=O)N(C)C(CN)c1ccccc1)C(=O)N[C@H](CCCCN)C(=O)N1CCC2(CC1)CC(N)(C(=O)O)C2` (stereo partly drawn), for which the Ki in series [1] (tested form: formate) is greater than 1000 nM; in series [2] (tested form: formate), greater than 1000 nM; in series [3] (tested form: formate) it was 1.61 nM.

In the case of `CC(C)CC(NC(=O)C(Cc1ccccc1)NC(=O)N(C)C(CN)c1ccccc1)C(=O)NC(CCCCN)C(=O)N1CCC(N)(C(=O)O)CC1` (single isomer, unassigned) [2-0], the Ki in series [1] (tested form: formate) is greater than 1000 nM; in series [2] (tested form: formate), greater than 1000 nM; in series [3] (tested form: formate), 1.15 nM.

As to `CC(C)C[C@@H](NC(=O)[C@@H](Cc1ccccc1)NC(=O)N(CCN)CC1CCCC1)C(=O)N[C@H](CCCCN)C(=O)N1CCC(N)(C(=O)O)CC1`, the inhibition constant (Ki) in [1] (tested form: formate) was greater than 1000 nM; in [2] (tested form: formate), greater than 1000 nM; in [3] (tested form: formate) it was 0.93 nM. In addition, the EC50 in series [4] (setting [10]) is 3.06 nM.

As to `CC(C)C[C@@H](NC(=O)[C@@H](Cc1ccccc1)NC(=O)[C@H](O)Cc1ccccc1)C(=O)N[C@H](CCCCN)C(=O)N1CCS(=N)(=O)CC1`, the Ki in series [1] (tested form: formate) is greater than 1000 nM; in series [2] (tested form: formate), greater than 1000 nM; in series [3] (tested form: formate) it was 11.2 nM.

As for `CC(C)CC(NC(=O)C(Cc1ccccc1)NC(=O)N(C)C(CN)c1ccccc1)C(=O)NC(CCCCN)C(=O)N1CCC(N)(C(=O)O)CC1` (single isomer, unassigned) [2-100], the values for the Ki in series [1] (tested form: formate), in [2] (tested form: formate) and in [3] (tested form: formate) were greater than 1000 nM, greater than 1000 nM and 32.5 nM, respectively.
